Reference: patent US20230250054A1, “SELECTIVE HISTONE DEACETYLASE 6 INHIBITORS” (The Board of Trustees of the University of Illinois, priority 2020, published 2023)

Assays:
[1] = system: SM1 melanoma tumors; details: pre-treatment, SM1 model in C57BL/6 mice, previously demonstrated; cited from earlier work
[2] = system: STAT3; test: IL-6 induced STAT3 phosphorylation in WM164 melanoma cells; details: WM164 cells pre-treated with 5 μM, then IL-6 (30 ng/mL) for 20 min, vs IL-6 alone

## CCCCN(Cc1ccc(C(=O)NO)cc1)C(=O)Nc1ccccc1
[1]
  tumor size: significantly decreased tumor size
[2]
  Y705 phosphorylation of STAT3: decreased Y705 phosphorylation of STAT3
